{
  "source": "patent US9889176B2",
  "about": "“Treating renal and liver dysfunction with TLR4 antagonists” (YAQRIT LIMITED, priority 2010, dated 2018)",
  "system": "BDL rats",
  "experiment": "Brain TLR4 expression, brain water and survival in BDL rats with or without LPS",
  "assay_type": "in vivo",
  "conditions": "BDL rats administered LPS; FIG. 25",
  "excerpt": "These experiments utilised an established animal model of cirrhosis, the bile duct ligated (BDL) rat. BDL rats may be generated by methods known in the art. For example, male Sprague-Dawley rats (200-250 g) may be used for this procedure. Following anaesthetisation, a mid-line laparotamy may be performed, the bile duct exposed, triply ligated with 4.0 silk suture, and severed between the second and third ligature. The wound is then closed in layers with absorbable suture, and the animal allowed to recover in a quiet room before being returned to the animal storage facility. 6 groups of Sprague-Dawley rats were studied: n=6 in each group. […] Experiments were carried out using Sham treated and BDL rats as described above.",
  "data": [
    {"compound": "CCn1cc(C(=O)O)c(=O)c2cc(F)c(N3CCNCC3)cc21", "note": "[Norfloxacin]", "values": [
      {"measurement": "survival", "value": "improvement in survival"}
    ]}
  ]
}
